From PubChem BioAssay AID588820 (The Scripps Research Institute Molecular Screening Center, 2011)
Only a part is listed here, and it is no random draw. Activity calls are given as the source filed them.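 The calls were made as follows: active = mean inhibition above 46.68%, the untreated control wells mean plus 3 SD; inactive = the rest.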

By UniProt entry, the sequences of proteins in these tests, tags left out.
UniProt Q15788, whole entry: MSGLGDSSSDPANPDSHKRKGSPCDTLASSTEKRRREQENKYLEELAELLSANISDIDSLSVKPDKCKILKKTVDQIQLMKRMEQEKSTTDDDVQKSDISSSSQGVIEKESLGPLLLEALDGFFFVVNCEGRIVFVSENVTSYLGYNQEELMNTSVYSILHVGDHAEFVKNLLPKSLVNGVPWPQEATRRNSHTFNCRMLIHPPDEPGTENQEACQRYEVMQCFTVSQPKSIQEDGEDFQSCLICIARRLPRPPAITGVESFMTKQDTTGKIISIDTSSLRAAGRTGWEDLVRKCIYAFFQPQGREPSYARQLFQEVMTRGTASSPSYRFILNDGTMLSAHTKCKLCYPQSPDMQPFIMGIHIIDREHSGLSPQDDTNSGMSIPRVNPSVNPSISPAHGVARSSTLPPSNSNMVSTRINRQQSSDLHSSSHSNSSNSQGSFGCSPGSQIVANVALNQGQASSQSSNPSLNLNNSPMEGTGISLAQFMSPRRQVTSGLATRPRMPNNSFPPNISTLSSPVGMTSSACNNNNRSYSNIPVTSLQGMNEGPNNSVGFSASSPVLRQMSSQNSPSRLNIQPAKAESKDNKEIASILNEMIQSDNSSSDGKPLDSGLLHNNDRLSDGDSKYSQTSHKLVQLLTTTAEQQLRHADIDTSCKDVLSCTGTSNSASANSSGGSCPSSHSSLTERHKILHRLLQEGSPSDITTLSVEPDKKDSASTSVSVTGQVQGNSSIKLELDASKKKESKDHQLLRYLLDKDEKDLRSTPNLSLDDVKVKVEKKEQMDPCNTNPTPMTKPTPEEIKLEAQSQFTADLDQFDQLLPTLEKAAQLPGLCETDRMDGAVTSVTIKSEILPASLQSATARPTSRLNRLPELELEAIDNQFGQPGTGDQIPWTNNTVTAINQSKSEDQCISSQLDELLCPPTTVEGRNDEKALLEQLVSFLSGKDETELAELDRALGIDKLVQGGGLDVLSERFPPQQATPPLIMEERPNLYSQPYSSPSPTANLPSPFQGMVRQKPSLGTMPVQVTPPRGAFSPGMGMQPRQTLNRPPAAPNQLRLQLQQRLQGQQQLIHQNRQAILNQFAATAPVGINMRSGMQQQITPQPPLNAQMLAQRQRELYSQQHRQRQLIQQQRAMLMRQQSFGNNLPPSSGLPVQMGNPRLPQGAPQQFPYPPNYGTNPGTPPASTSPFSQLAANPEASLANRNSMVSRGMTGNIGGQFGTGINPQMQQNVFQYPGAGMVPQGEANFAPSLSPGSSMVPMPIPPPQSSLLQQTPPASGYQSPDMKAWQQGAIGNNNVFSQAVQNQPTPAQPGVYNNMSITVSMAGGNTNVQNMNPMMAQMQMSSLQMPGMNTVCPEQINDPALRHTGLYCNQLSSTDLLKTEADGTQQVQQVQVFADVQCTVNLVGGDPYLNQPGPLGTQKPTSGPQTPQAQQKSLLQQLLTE

The compounds below were run against Nuclear receptor coactivator 1 (Homo sapiens) (UniProt Q15788) (assay: NCOA1 GAL4-fusion reporter inhibition – cell-based, luminescence, quadruplicate, confirmation (AID 588820;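 also: 0% = DMSO wells and 100% = gossypol 36 µM treated wells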)). Details: HEK293 GAL4-SRC1 luciferase reporter, at 3.6 µM, active compounds read high.
`COc1cccc(C(c2nnnn2C2CCCCC2)N2CCC(n3c(=O)[nH]c4ccccc43)CC2)c1OC` (configuration not stated) was tested, and the inhibition was inactive: -28.9%.
In the case of `O=c1[nH]c2ccccc2n1C1CCN(C(c2ccccc2)c2nnnn2C2CCCCC2)CC1` (configuration not stated), the inhibition is reported as inactive: -21.3%.
